# Source: ChEMBL document CHEMBL1131645, “Synthesis and activity studies of N-[omega-N'-(adamant-1'-yl)aminoalkyl]- 2-(4'-dimethylaminophenyl)acetamides: in the search of selective inhibitors for the different molecular forms of acetylcholinesterase” (Bioorg Med Chem Lett, 1998)
# By UniProt entry, the sequences of proteins in these tests, tags left out. Where a name states a change or a piece, a line headed by the entry shows the natural chain unless it says otherwise.
# UniProt O42275: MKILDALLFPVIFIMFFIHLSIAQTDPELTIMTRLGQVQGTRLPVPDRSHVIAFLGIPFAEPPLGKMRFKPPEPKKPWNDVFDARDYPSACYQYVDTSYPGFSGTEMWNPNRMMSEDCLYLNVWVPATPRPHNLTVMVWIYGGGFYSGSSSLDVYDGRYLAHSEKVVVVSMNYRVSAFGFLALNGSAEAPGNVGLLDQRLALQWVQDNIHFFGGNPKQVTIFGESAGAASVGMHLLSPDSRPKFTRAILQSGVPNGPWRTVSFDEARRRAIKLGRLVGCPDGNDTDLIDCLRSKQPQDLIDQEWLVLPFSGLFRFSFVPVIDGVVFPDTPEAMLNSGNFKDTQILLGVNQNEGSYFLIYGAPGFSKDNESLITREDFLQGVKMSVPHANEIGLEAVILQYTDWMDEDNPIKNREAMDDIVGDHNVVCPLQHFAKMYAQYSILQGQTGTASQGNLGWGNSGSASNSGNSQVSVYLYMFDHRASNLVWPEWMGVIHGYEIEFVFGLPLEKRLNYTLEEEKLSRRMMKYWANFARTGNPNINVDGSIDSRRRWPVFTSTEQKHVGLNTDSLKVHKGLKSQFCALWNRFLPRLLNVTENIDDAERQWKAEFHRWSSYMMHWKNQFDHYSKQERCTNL
# Biological target: Acetylcholinesterase (Electrophorus electricus, UniProt O42275)
smiles,measurement,value
CNC(=O)Oc1ccc2c(c1)[C@]1(C)CCN(C)[C@@H]1N2C [PHYSOSTIGMINE],IC50,46 nM
